In PubChem BioAssay AID761 (NMMLSC, 2007) one finds percent activity (GTP binding) data, which are given here for 9 compounds.

Amino acid sequences for entries named in this document (tags omitted).
UniProt P60953, whole entry: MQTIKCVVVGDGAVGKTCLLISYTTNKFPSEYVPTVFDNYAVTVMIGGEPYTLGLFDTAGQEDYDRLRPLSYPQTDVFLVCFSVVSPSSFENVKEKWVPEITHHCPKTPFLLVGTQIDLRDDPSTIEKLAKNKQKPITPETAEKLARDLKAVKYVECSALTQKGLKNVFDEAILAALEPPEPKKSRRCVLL

Only a part is listed here, and it is no random draw. Some tests of the compounds listed are not included; inactive here does not mean inactive elsewhere. Activity calls are given as the source filed them.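 The calls were made as follows: active = percent activity GTP binding at least 20 points away from the 100% baseline, either down as inhibitor or up as activator; inconclusive = compound flagged as likely green fluorescent from well-wide comparison; inactive = the rest.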

The target in the assay is Cell division control protein 42 homolog (Homo sapiens) (UniProt P60953). As to the kind of experiment: wildtype Cdc42 fluorescent GTP binding changes, either direction – biochemical, multiplex bead flow cytometry, Bodipy-GTP, primary screen (AID 761).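 Also: median bead fluorescence of bound Bodipy-FL-GTP at 100 nM; 0% = excess unlabeled GTP control and 100% = no compound control; below 100% means less GTP binding so inhibitor and above means activator.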 The settings on record: GST-Cdc42 beads, at 10 µM, actives lie on both sides.
With `COc1cccc(C(=O)NCC2(N3CCCCC3)CCCCC2)c1`, the percent activity (GTP binding) is inactive: 96%.
`CN(C)c1cccc(C(=O)NCC2(N(C)C)CCCCC2)c1`: the percent activity (GTP binding) was inactive: 104%.
For the compound `O=C(OC1CN2CCC1CC2)C(CO)(c1ccccc1)c1ccccc1` (centres undefined), the percent activity (GTP binding) was inactive: 99%.
In the case of `CC(C)N1C(=O)CC2(CCN(CCOC(=O)C(O)(c3ccccc3)c3ccccc3)CC2)C1=O`, the percent activity (GTP binding) was inactive: 104%.
Consider `O=C(NCC1(N2CCCCC2)CCCCC1)c1cc([N+](=O)[O-])ccc1Cl`, for which the percent activity (GTP binding) is inactive: 94%.
Turning to `C=CCN1CCN(CCOC(=O)C(O)(c2ccccc2)c2ccccc2)CC1`, the percent activity (GTP binding) is inactive: 97%.
For `CCN1CCCC(OC(=O)C2(O)c3ccccc3C=Cc3ccccc32)C1` (centres undefined), the percent activity (GTP binding) was inactive: 100%.
`CN(C)C1CCCC1OC(=O)C(O)(c1ccccc1)c1ccccc1` (centres undefined): the percent activity (GTP binding) was inactive: 103%.
In the case of `Cc1ccccc1C(=O)NCC1(N2CCCCC2)CCCCC1`, the percent activity (GTP binding) is inactive: 97%.
